Experimental data from ChEMBL document CHEMBL4177755, “Combating Drug-Resistant Fungi with Novel Imperfectly Amphipathic Palindromic Peptides” (J Med Chem, 2018).

Experiments:
Format in all cases: functional
Conditions in all cases: ATCC 25922, 18 h
[1] = system: Escherichia coli; assay: Antibacterial activity against Escherichia coli ATCC 25922 after 18 hrs in presence of NaCl by broth dilution method
[2] = system: Escherichia coli; assay: Antibacterial activity against Escherichia coli ATCC 25922 after 18 hrs in presence of MgCl2 by broth dilution method
[3] = system: Escherichia coli; assay: Antibacterial activity against Escherichia coli ATCC 25922 after 18 hrs in presence of FeCl3 by broth dilution method
[4] = system: Escherichia coli; assay: Antibacterial activity against Escherichia coli ATCC 25922 after 18 hrs in presence of KCl by broth dilution method
[5] = system: Escherichia coli; assay: Antibacterial activity against Escherichia coli ATCC 25922 after 18 hrs in presence of NH4Cl by broth dilution method
[6] = system: Escherichia coli; assay: Antibacterial activity against Escherichia coli ATCC 25922 after 18 hrs in presence of 12.5% human heat-inactivated serum by broth dilution method
[7] = system: Escherichia coli; assay: Antibacterial activity against Escherichia coli ATCC 25922 after 18 hrs in presence of 25% human heat-inactivated serum by broth dilution method
[8] = system: Escherichia coli; assay: Antibacterial activity against Escherichia coli ATCC 25922 after 18 hrs in presence of CaCl2 by broth dilution method
[9] = system: Escherichia coli; assay: Antibacterial activity against Escherichia coli ATCC 25922 after 18 hrs in presence of ZnCl2 by broth dilution method
[10] = system: Escherichia coli; assay: Antibacterial activity against Escherichia coli ATCC 25922 after 18 hrs in presence of 50% human heat-inactivated serum by broth dilution method

CC[C@H](C)[C@H](NC(=O)CN)C(=O)NCC(=O)N[C@@H](C)C(=O)N[C@H](C(=O)N[C@@H](CC(C)C)C(=O)N[C@@H](CCCCN)C(=O)N[C@H](C(=O)N[C@@H](CC(C)C)C(=O)N[C@H](C(=O)N[C@H](C(=O)NCC(=O)N[C@@H](CC(C)C)C(=O)N1CCC[C@H]1C(=O)N[C@@H](C)C(=O)N[C@@H](CC(C)C)C(=O)N[C@H](C(=O)N[C@@H](CO)C(=O)N[C@@H](Cc1c[nH]c2ccccc12)C(=O)N[C@H](C(=O)N[C@@H](CCCCN)C(=O)N[C@@H](CCCNC(=N)N)C(=O)N[C@@H](CCCCN)C(=O)N[C@@H](CCCNC(=N)N)C(=O)N[C@@H](CCC(N)=O)C(=O)N[C@@H](CCC(N)=O)C(N)=O)[C@@H](C)CC)[C@@H](C)CC)[C@@H](C)O)[C@@H](C)O)C(C)C)C(C)C [MELITTIN]
MIC [1]: 4 µM
MIC [2]: 4 µM
MIC [3]: 2 µM
MIC [4]: 2 µM
MIC [5]: 2 µM
MIC [6]: 32 µM
MIC [7]: 64 µM
MIC [8]: 8 µM
MIC [9]: 2 µM
MIC [10]: 64 µM
